Laboratory results as given in US11124550B2, “Proteinaceous molecules and methods of use” (priority 2015, dated 2021).

Sequences of proteins named here, by UniProt entry; tags and fusion partners are left off.
UniProt Q14524, whole entry: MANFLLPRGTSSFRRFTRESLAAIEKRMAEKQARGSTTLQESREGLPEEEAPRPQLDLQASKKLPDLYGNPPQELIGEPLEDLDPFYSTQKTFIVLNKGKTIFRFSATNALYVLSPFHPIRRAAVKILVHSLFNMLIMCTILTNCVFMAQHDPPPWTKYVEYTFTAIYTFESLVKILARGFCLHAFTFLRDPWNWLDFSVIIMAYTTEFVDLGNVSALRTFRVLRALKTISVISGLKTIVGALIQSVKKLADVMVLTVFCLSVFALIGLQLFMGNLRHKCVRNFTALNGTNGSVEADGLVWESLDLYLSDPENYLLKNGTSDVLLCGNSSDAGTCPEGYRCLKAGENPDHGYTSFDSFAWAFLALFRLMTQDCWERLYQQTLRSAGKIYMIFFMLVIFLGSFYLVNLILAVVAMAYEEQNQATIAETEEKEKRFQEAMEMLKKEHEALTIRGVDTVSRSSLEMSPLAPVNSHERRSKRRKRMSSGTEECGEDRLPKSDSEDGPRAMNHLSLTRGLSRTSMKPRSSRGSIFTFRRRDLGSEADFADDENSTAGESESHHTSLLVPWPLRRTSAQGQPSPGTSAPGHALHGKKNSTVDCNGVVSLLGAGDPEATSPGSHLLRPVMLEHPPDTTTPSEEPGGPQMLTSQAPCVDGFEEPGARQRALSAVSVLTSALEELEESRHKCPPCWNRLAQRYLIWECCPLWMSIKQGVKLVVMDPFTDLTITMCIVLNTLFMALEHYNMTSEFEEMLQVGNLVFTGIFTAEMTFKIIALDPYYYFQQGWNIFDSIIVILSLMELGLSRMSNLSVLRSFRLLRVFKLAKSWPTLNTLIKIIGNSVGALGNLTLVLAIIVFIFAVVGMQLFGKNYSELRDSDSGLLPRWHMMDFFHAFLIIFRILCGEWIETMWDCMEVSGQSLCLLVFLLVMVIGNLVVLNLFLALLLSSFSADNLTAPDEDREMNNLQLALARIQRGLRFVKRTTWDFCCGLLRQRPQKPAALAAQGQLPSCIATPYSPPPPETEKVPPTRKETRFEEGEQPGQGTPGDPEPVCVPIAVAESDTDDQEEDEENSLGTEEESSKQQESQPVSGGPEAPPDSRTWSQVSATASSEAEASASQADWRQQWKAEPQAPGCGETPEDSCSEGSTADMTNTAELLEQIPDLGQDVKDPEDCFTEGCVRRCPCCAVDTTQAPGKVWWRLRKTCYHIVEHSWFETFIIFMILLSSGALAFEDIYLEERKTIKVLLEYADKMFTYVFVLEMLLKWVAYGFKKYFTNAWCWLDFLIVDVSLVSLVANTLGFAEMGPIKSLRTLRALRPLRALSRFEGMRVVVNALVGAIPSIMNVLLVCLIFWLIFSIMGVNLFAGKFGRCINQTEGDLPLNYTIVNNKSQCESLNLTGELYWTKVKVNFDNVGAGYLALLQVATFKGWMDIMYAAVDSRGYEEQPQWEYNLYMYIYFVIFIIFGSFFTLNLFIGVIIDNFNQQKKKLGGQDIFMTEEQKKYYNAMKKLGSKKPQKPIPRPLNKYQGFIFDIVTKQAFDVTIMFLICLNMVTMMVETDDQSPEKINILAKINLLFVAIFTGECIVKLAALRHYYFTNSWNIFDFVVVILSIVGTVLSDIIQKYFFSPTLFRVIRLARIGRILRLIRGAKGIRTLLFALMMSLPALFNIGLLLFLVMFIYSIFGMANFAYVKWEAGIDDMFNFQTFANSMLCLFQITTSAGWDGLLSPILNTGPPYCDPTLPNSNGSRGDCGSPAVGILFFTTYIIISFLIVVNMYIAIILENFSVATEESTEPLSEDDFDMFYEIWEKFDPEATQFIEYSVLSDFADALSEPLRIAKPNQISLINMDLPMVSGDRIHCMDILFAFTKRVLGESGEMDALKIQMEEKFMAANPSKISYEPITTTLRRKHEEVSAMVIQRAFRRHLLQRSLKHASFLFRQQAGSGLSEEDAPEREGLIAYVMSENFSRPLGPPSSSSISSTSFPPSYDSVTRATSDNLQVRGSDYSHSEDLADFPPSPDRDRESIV
UniProt Q9Y5Y9, whole entry: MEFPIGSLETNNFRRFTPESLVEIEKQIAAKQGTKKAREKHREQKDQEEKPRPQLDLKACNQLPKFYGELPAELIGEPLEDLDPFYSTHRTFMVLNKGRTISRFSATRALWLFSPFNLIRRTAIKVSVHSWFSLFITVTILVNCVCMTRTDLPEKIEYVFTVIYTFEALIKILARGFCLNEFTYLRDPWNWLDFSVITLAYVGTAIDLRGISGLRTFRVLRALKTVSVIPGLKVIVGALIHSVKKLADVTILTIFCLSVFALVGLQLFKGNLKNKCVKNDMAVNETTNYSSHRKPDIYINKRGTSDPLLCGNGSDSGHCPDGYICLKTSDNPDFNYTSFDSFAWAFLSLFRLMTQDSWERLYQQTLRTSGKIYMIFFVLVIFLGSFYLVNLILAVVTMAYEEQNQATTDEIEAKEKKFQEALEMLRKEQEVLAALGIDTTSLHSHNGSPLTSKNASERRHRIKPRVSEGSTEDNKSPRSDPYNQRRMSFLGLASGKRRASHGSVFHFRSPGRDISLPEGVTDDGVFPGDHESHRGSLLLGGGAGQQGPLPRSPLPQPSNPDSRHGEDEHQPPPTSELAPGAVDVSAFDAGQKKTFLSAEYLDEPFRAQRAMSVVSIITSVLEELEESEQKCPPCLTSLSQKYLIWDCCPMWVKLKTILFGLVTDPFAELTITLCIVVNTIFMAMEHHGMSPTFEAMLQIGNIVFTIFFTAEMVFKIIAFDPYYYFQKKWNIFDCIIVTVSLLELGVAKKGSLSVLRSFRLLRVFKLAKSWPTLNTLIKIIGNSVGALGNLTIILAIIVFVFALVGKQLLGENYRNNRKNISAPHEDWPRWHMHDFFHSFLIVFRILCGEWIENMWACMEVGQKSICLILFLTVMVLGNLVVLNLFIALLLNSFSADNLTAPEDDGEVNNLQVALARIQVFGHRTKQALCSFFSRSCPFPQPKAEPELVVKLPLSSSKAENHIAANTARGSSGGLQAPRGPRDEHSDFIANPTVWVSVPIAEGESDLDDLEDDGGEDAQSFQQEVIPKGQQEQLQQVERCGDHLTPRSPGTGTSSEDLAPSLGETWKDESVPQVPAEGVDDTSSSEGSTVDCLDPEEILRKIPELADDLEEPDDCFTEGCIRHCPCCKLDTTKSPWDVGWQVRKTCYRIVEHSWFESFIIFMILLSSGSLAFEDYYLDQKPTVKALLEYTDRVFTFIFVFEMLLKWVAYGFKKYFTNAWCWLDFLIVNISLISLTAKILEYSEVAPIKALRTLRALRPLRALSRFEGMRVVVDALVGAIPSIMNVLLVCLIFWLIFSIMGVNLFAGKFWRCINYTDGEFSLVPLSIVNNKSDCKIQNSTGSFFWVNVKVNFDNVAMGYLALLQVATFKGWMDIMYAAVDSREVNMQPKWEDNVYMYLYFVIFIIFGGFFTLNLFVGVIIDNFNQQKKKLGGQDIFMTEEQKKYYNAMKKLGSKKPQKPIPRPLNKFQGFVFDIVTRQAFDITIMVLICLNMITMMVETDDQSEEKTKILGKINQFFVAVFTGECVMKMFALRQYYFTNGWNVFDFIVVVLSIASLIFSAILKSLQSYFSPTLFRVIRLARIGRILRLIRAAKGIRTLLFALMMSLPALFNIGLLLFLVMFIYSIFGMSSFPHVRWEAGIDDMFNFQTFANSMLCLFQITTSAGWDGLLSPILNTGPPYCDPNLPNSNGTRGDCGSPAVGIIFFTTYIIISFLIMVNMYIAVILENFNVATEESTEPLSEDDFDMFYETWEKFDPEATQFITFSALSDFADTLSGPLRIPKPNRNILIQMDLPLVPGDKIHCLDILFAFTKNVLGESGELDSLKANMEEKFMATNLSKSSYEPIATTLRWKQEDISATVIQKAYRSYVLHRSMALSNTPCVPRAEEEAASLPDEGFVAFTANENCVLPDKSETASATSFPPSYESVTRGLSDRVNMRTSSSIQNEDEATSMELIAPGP

What was measured:
[1] = test system: sodium channel currents in TG neurons; experiment: Whole-cell patch clamp / current clamp of dissociated trigeminal neurons; assay type: cell-based, mouse
Description: Trigeminal ganglia were dissected from newborn (P0-P3) C57BL/6 mice and dissociated with collagenase P (Sigma) and 0.25% Trypsin (15 minutes each). Cells were then triturated with a plastic pipette and cultured for >12 hours before electrophysiological recording. Whole-cell patch clamp recordings were performed manually on dissociated neurons using an Axopatch 200B amplifier (Axon instruments). Signals were digitized using a Digidata 1440A (Axon Instruments) and recorded using pClamp software. External solutions were 150 mM NaCl, 2.8 mM KCl, 1 mM MgCl2, 1 mM CaCl2), pH adjusted to 7.4 using NaOH. Internal solutions contained 130 mM K-gluconate, 15 mM KCl, 4 mM NaCl, 0.5 mM CaCl2, 1 mM EGTA, 10 mM HEPES, pH adjusted to 7.2 using NaOH. Inward sodium channel currents were elicited by stepping the membrane voltage from −90 mV to −30 mV.

hNav1.5 = target: T1, hNav1.5 (Homo sapiens, UniProt Q14524); experiment: Automated planar whole-cell patch clamp (Patchliner), hSCN5A HEK293T cells; assay type: cell-based; details: concentrations tested up to 50 nM
T1 construct: expressed in transfected cells; host or cells: HEK293T
Source text: (§1) To characterize the functional activity of Hm1a and Hm1b, HEK293T cells stably transfected with either hSCN1A, hSCN2A, hSCN3A, hSCN5A, hSCN9A or hSCN10A as well as CHO cells stably transfected with hSCN4A or hSCN8A were used for whole-cell patch-clamp analysis with a high throughput automated planar patch-clamp technology.
(§2) HEK293T cells stably transfected with either hSCN1A, hSCN2A, hSCN3A, hSCN5A, hSCN9A or hSCN10A were maintained in Dulbecco's Modified Eagle's Medium Nutrient Mixture F-12 (Invitrogen, Carlsbad, Calif., USA) supplemented with 10% (v/v) foetal bovine serum (FBS) (Invitrogen), 0.9% Penicillin/Streptomycin (P/S) solution and 100 μg/mL hygromycin or 100 μg/mL neomycin. CHO cells stably transfected with hSCN4A or hSCN8A were maintained in Ham's F12 Nutrient Mixture (Invitrogen, Carlsbad, Calif., USA) supplemented with 10% (v/v) FBS, 0.9% P/S solution and 100 μg/mL hygromycin. All cells were grown in T75 flasks (BD Biosciences, San Jose, Calif., USA) to ˜70% confluency.
(§3) Patch-clamp recordings were conducted in the whole-cell configuration using a Patchliner® (Nanion Technologies, Munich, Germany). […]

hNav1.8 = target: T2, hNav1.8 (Homo sapiens, UniProt Q9Y5Y9); experiment: Automated planar whole-cell patch clamp (Patchliner), hSCN10A HEK293T cells; assay type: cell-based; details: concentrations tested up to 50 nM
T2 construct: expressed in transfected cells; host or cells: HEK293T
Source text: as §1, §2, §3

CC(C)C[C@@H]1NC(=O)[C@H](Cc2ccc(O)cc2)NC(=O)[C@H](CCCNC(=N)N)NC(=O)[C@@H](NC(=O)[C@@H](N)CCC(=O)O)CSSC[C@@H]2NC(=O)[C@@H]3CSSC[C@@H](C(=O)N[C@@H](C)C(=O)N[C@@H](Cc4c[nH]c5ccccc45)C(=O)N[C@@H](CC(=O)O)C(=O)NCC(=O)N[C@H](C(=O)N[C@@H](Cc4ccccc4)C(=O)N[C@@H](CO)C(=O)O)[C@@H](C)O)NC(=O)[C@H](Cc4ccc(O)cc4)NC(=O)[C@H](CCCCN)NC(=O)[C@H](Cc4c[nH]c5ccccc45)NC(=O)[C@H](CC(=O)O)NC(=O)[C@H](CO)NC(=O)[C@H](CCCNC(=N)N)NC(=O)[C@H](CSSC[C@H](NC(=O)CNC(=O)CNC(=O)[C@H](Cc4ccccc4)NC1=O)C(=O)N[C@@H](CO)C(=O)N[C@@H](CO)C(=O)N[C@@H]([C@@H](C)O)C(=O)N[C@@H](CO)C(=O)N[C@@H](CC(=O)O)C(=O)N3)NC(=O)[C@H](CO)NC(=O)[C@H](CC(C)C)NC(=O)[C@H](Cc1c[nH]cn1)NC(=O)[C@H](CCCCN)NC2=O [Hm1a]
resting membrane potential Vm ([1]; after Hm1a, before Hm1a −55±6 mV, current clamp): −56±6 mV
action potential waveform ([1]; current clamp): prolonged
spike frequency ([1]; following a 20 pA current injection, Hm1a 500 nM): robustly enhanced
sodium channel inactivation ([1]; whole-cell patch-clamp, TG neurons): robustly inhibited sodium channel inactivation
effect on hNav1.5 current (hNav1.5): no effect
effect on hNav1.8 current (hNav1.8): no effect
